Publication PMC3725620 (Breast cancer research and treatment, 2011)

The chains behind the UniProt entries cited, without tags or fusion partners. Where a name states a change or a piece, a line headed by the entry shows the natural chain unless it says otherwise.
UniProt P43116: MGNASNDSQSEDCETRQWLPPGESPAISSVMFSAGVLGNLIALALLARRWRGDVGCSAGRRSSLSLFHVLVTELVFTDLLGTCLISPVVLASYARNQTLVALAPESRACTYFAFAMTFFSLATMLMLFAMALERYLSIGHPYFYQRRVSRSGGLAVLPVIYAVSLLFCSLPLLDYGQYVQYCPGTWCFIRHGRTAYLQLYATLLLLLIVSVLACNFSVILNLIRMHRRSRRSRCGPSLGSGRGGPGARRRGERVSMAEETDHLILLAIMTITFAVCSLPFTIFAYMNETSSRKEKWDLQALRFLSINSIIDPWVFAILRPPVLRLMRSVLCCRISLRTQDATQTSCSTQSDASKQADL

Target: prostaglandin E receptor EP2 (Homo sapiens, UniProt P43116)
Assay: 3H-PGE2 radioligand binding, recombinant HEK-293-EP2 cells
Assay type: cell-based

## CCCCC[C@H](O)/C=C/[C@H]1[C@H](O)CC(=O)[C@@H]1C/C=C\CCCC(=O)O [PGE2]
  Kd: 3.1 nM
